Yeast mating assay B: variants of the scFv Ab-14

The target is the same throughout: PDVDLGDISGINAS, from the HR2 region of SARS-CoV-2 spike.

The variants keep the heavy chain, the linker and the frameworks of Ab-14 (scFv order VH, three GGGGS repeats, VL).
VH: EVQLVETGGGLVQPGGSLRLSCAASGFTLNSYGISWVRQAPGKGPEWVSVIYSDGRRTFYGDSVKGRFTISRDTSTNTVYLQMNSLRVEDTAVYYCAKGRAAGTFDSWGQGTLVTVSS
VL: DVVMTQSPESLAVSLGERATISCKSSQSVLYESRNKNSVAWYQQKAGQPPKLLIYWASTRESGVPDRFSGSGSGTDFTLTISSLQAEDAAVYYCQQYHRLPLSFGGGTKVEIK

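Phage display of a naive human antibody library on the peptide gave the parent. The variants were designed computationally from a first round of random CDR variants and then made and measured. Group labels follow the data file (Rand: our label for a block that the file lists under HC and that is probably the random mutants of the ten best first-round binders; En: ensemble of fine-tuned language models; GP: Gaussian process model; HC: hill climbing; Gen: genetic algorithm; Gibbs: Gibbs sampling; a sequence that several methods proposed may carry one label only). The assay is AlphaSeq: two haploid yeast populations carry antibody and antigen on their surface. After mating in shaken culture at 30 °C for 16 h, diploids were selected and their barcode pairs sequenced. Each replicate has its own calibration line, from reference interactions of the BCL2 family. There are six technical replicates.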

The parent's light chain CDRs are KSSQSVLYESRNKNSVA, WASTRES, QQYHRLPLS; each variant's own CDRs replace them letter for letter.
Variants here have more than six changes.
Numbers give log10(Kd / nM), so 0 is 1 nM and 3 is 1 µM. Smaller is tighter.
Averages over replicates are reported, and they cover detected replicates only.
An entry "nd" has no value in the source: the pair was not observed among the diploids in that replicate. This suggests poor binding but is not conclusive.
In the paper, a design with two or fewer of six values counts as a poor binder.

* KIAQSMNMTSHHINSVA | QSTTREE | QQYNHLPLS [En_HC]: 1.30, 1.26, 1.08, 1.16, 0.98, 1.37 (mean 1.19; controls 1 of 18)
* KMMQNKVDGATRQYSIA | ETTKVMA | QQYFHLPFI [En_Gibbs]: 0.95, 1.03, 0.84, 0.91, 1.03, 1.03 (mean 0.97; controls 0 of 18)
* KLSMITGHQSTQKNNVA | EMVTREE | QQYNRLPLA [En_Gen]: 0.27, 0.07, 0.01, -0.13, -0.06, 0.05 (mean 0.04; controls 1 of 18)
* MIHESMGLMSHKHSSIA | DNSTREE | QQYDRLPLS [En_Gen]: nd, nd, nd, nd, nd, nd (controls 0 of 18)
* QLLMATMGETYNRNSVA | HAETRED | QSYHRLPLS [En_HC]: 1.88, 0.80, 0.91, 1.09, 0.85, 1.51 (mean 1.17; controls 0 of 18)
* MISQIYNMGQFAINSVA | QASQRNS | QQYDRLPLM [En_Gen]: 1.17, 1.14, 1.12, 1.16, 1.09, 1.57 (mean 1.21; controls 2 of 18)
* KLQQGMDYESRNDNSVA | EASTRES | QQYHRLPLF [GP_Gibbs]: 0.08, 0.09, 0.21, -0.01, 0.18, 0.22 (mean 0.13; controls 0 of 18)
* TLTQVGGYEMNAHNSIA | DLRTREN | QQYHRLPLS [En_HC]: 0.22, 0.31, 0.62, 0.12, 0.30, 0.26 (mean 0.30; controls 0 of 18)
* IVSQLMLWGHLAKNSIA | EAQTRLN | QQYDRLPLF [En_Gen]: nd, nd, nd, nd, nd, nd (controls 0 of 18)
* KISYLQNQTFEESNNVA | EMVTREK | QQYHRLPLS [En_Gen]: 1.62, 0.69, 1.63, 1.34, 0.42, 0.86 (mean 1.09; controls 1 of 18)
* TVSQVHEMLSHNKNSVA | DMNTREN | QQYDRLPLS [En_HC]: 0.33, 0.17, -0.20, 0.11, 0.17, 0.34 (mean 0.15; controls 1 of 18)
* KIGHGLTTEMYNRNSVA | QTETRVP | QHYHRLPLS [En_HC]: 2.42, 1.96, 2.41, 2.29, 2.33, 2.24 (mean 2.28; controls 1 of 18)
* KLSMVTGHMSMSRNNVA | EMVTREN | QQYDRLPLS [En_Gen]: 1.17, 0.76, 0.36, 0.34, 0.55, 0.92 (mean 0.69; controls 2 of 18)
* KVSEFMKGLMMRTDSIA | DNVTRNK | QQYDRLPLS [En_Gen]: 1.85, nd, 3.18, nd, 1.44, nd (mean 2.16; controls 0 of 18)
* MLSEVLHMLGVAKNSIA | DLVLRAN | QQYHRLPLF [En_Gen]: nd, nd, 1.18, nd, nd, nd (controls 1 of 18)
* NVGQKMDGESRNKNSVA | HQSTRED | QHYHRLPLS [En_HC]: 0.78, 1.23, 1.95, 1.77, 1.59, 1.12 (mean 1.41; controls 0 of 18)
* KLGQSVAMTSRNSNNVA | DLNERER | QQYHRLPLS [En_HC]: 0.38, 0.11, 0.11, -0.02, 0.15, 0.00 (mean 0.12; controls 1 of 18)
* KMSQSVLGLDRNWNNVA | YASTREM | QQYHRLPLS [GP_Gibbs]: 0.60, 0.04, -0.04, 0.26, 0.44, 0.70 (mean 0.33; controls 0 of 18)
* NIVGRVEDKGTTTANIA | DAELRAG | QQYSRLPLS [En_Gibbs]: 0.34, 0.46, 0.20, -0.06, 0.25, 0.51 (mean 0.28; controls 0 of 18)
* TISGSAQQESHNKNSVA | DLSVRGS | QQYHRLPLS [En_HC]: 0.38, 0.31, 0.43, 0.37, 0.44, 0.55 (mean 0.42; controls 2 of 18)
* QLKTEVIDNQQLRNSIA | ENELRAM | QQYLSLPLS [En_Gibbs]: 1.92, 1.16, 1.08, 1.17, 0.98, 1.04 (mean 1.22; controls 0 of 18)
* ILSQMMLTAGNKHSSVA | QANNRND | QQYHRLPLS [En_HC]: 1.48, 1.59, 1.75, 1.88, 1.46, 1.56 (mean 1.62; controls 0 of 18)
* KLQQSVLYEGRNKNSVA | QASQRSD | QQYHRLPLS [GP_Gibbs]: -0.04, -0.05, -0.44, -0.46, -0.19, -0.15 (mean -0.22; controls 1 of 18)
* KLGGEQQNSTYEKDNVA | DVNTTFE | QHYSRLPLT [En_Gibbs]: nd, nd, nd, nd, 2.70, nd (controls 2 of 18)
* TITQVQGMESHNKDNVA | DLSTRGN | QQYDRLPLS [En_HC]: 0.93, 1.25, 0.81, 1.12, 0.90, 0.69 (mean 0.95; controls 2 of 18)
* KLRWSNLYESRNANSVA | NASQRCS | QQYHRLPLS [GP_Gibbs]: 0.08, 0.12, -0.08, -0.17, 0.08, -0.08 (mean -0.01; controls 7 of 18)
* MISDMGIHDSRIQNSVA | NNSTREA | QQYDRLPLS [En_HC]: nd, nd, 2.91, nd, nd, nd (controls 1 of 18)
* KISQMFNVGTKNTNSLA | EMNTRGT | QDYHRLPLS [En_HC]: 0.97, 1.52, 0.66, 2.21, 0.93, 1.86 (mean 1.36; controls 0 of 18)
* KLLQAVLGESYNKNNVA | HNSTRED | QEYARLPLS [En_HC]: 2.13, 2.36, 2.43, 1.52, 2.31, 2.45 (mean 2.20; controls 2 of 18)
* KIAQSMNLTSHHINSVA | QSETRED | QQYNHLPLS [En_HC]: nd, 1.40, nd, nd, nd, 2.09 (mean 1.75; controls 0 of 18)
* HSSPSVLYESRLRNSVA | NASHRES | QQVHRLPLS [Rand]: nd, nd, nd, nd, nd, nd (controls 1 of 18)
* KLSEYAHFESRKKNSVA | ENSTRES | QQYDHLPLS [En_HC]: 0.65, 0.85, 0.74, 1.24, 0.69, 1.03 (mean 0.87; controls 0 of 18)
* KLQQSVMFMSGVYNSVA | QMSTRAE | QCYNRLPLS [En_HC]: 2.18, 2.37, 2.52, nd, 2.51, 3.18 (mean 2.55; controls 0 of 18)
* RYQMDDNIGKGARNNVA | DGAEVRM | QQYARLPLL [En_Gibbs]: 0.40, 0.22, 0.26, 0.58, 0.29, 0.96 (mean 0.45; controls 0 of 18)
* KFSQSALYEERMKNSVA | DASQRLS | QQYHRLPLS [GP_Gibbs]: 0.06, 0.03, -0.05, -0.18, -0.29, -0.03 (mean -0.08; controls 1 of 18)

The range of this assay differs from that of the first round, and the authors advise against merging the two.
Three control strains display no target. For all light chain designs, 4% of the pairings with them gave a signal, with a median of 2.64 and one signal in twenty below 1.59, so weak values seen in few replicates may be background. The control count says in how many pairings with the empty strains this scFv gave a signal.

The measurements come from Li et al. 2023 (doi:10.1038/s41467-023-39022-2) through the FLAb antibody collection.